# Data reported in PubChem BioAssay AID629 (Emory University Molecular Libraries Screening Center, 2007).
# Protein sequences, listed by entry. Tags and fused reporters are not part of them.
# UniProt P03372, whole entry, looked up: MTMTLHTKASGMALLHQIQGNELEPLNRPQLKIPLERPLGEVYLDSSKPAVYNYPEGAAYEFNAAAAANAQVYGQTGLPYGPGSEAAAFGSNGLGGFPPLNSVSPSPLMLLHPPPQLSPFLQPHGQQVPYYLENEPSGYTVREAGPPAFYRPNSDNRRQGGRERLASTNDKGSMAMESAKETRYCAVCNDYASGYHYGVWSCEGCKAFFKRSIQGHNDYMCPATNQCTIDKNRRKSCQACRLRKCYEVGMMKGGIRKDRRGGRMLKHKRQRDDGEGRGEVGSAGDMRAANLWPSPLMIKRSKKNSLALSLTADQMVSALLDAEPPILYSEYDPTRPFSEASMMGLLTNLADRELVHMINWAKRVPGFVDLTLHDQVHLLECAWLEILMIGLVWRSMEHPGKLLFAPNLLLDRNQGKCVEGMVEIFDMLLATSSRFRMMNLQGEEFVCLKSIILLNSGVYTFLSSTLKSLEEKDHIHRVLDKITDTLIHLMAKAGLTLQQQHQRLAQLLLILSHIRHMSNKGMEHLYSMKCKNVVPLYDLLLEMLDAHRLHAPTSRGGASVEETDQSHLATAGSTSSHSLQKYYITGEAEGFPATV
# The entries are a selection whose mix differs from that of the whole data set. The source made the active and inactive calls. Rule as the data show it: active = inhibition above about 50%; inactive = the rest.
# Target: Estrogen receptor (Homo sapiens) (UniProt P03372)
# Assay: blockers of SRC-1 peptide recruitment to ERα – biochemical, TR-FRET, ERα LBD, estradiol-bound, primary screen (AID 629);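 also: 0% = receptor plus peptide control and 100% = peptide only without receptor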
# Conditions: TR-FRET ER-alpha LBD / SRC-1 peptide, at 25.6 µM, stronger effect = higher value
row,SMILES,inhibition
1,O=C(OC1CN2CCC1CC2)c1cccc(Cl)c1 (configuration not stated),inactive: 2.27%
2,O=P(Nc1nccs1)(c1ccccc1)c1ccccc1,inactive: -0.59%
3,c1nnnn1CCn1cnnn1,inactive: -6.86%
4,O=P1(Nc2nc3ccc(Cl)cc3s2)COc2ccccc2O1 (configuration not stated),inactive: 2.35%
5,COC(=O)c1cc2c(s1)N=C(c1ccccc1)N(C)P2(=O)N1CCOCC1 (configuration not stated),inactive: -24.8%
6,CCOP(=O)(Nc1ccccc1)OCC,inactive: 20.5%
7,CN1CCCC(OC(=O)C(c2ccccc2)c2ccccc2)C1 (configuration not stated),inactive: 4.22%
8,Cc1c2non([O-])c-2c(C)[n+](=O)[n+]1[O-],inactive: 2.52%
9,Oc1ccccc1CNc1ccccn1,inactive: 7.09%
10,O=[N+]([O-])c1cccc2n[nH]nc12,inactive: 4.36%
11,CCc1nc2c(n1)c1c(non1O)c1c2no[n+]1[O-],inactive: -0.77%
12,CC1CCN(C(=O)Oc2c(Cl)cc(Cl)c3cccnc23)CC1,inactive: 2.7%
13,COP1(=S)c2c(C)nn(CCC#N)c2N=C(c2ccc(F)cc2)N1C (configuration not stated),inactive: -3.92%
14,O=C(COc1ccccc1)OC1CN2CCC1CC2 (configuration not stated),inactive: 0.75%
15,CCC(C)N(CC(C)C)C(=S)SC(NC(C)=O)C(Cl)(Cl)Cl (configuration not stated),inactive: -9.54%
16,O=C(OC1CN2CCC1CC2)C12CC3CC(CC(C3)C1)C2 (configuration not stated),inactive: 8.94%
17,ClCCSc1nnc(-c2cccnc2)o1,inactive: 5.92%
18,CCOP1(=S)c2c(C)nn(CCC#N)c2N=C(c2ccccc2F)N1C (configuration not stated),inactive: 1.63%
19,CCOP1(=S)c2c(C)nn(CCC#N)c2N=C(c2ccc(F)cc2)N1C (configuration not stated),inactive: -6.26%
20,Cc1cccc(OCC(=O)OC2CN3CCC2CC3)c1 (configuration not stated),inactive: -1.74%
21,O=P1(Nc2ccccn2)COc2ccccc2OC1,inactive: 2%
22,Clc1n[nH]nc1-c1nn[nH][15n]1,inactive: 0.53%
23,CC1(CBr)Cn2c(nc3ccccc3c2=O)S1 (configuration not stated),inactive: 23.7%
24,Cc1nn(-c2ccccc2)c2c1P(=O)(N1CCOCC1)N(C)C(c1ccccc1)=N2 (configuration not stated),inactive: 21.3%
25,O=P1(Nc2ncccn2)COc2ccccc2OC1,inactive: 5.82%
26,O=P1(Nc2ccc(Br)cn2)COc2ccccc2OC1,inactive: 9.17%
27,Cc1ccc(OCC(=O)OC2CN3CCC2CC3)cc1 (configuration not stated),inactive: 4.95%
